# Paper PMC7723054
# The list shows a part of the results.
# B1: hsa-mir-4477b (structured_RNA)
# RNA: GGGAACGUUCUUCAGGCGCGGGUAAUUCGGUGUACGAAGUUUCAGCUAAUAGCAAUCCUUAAAUGCCAUUAGCUGAAGCUUCGUGCAC
# B2: hsa-mir-4469 (structured_RNA)
# RNA: GGGACGAGUCACCCCUGAGUCCUUGUUCGGUGUACGAAGUUUCAGCUGGCGGCGGCGAGGACACCGCCGCUGCUGAAGCUUCGUGCAC
# B3: hsa-mir-891a (structured_RNA)
# RNA: GGGACAAGCUGUCUAACCUGGACACUGAGGUGUACGAAGUUUCAGCCACUGAUUCAGUAAAAUACUCAGUGGCUGAAGCUUCGUGCAC
# B4: hsa-mir-7975 (structured_RNA)
# RNA: GGGACCCUUAUGGGAGAUCCCCGUUCCUGGUGUACGAAGUUUCAGCAGGACAGGGGAUUUAUCUCCCAAGGGAGGUCCCCUGAUGCUGAAGCUUCGUGCAC
# B5: hsa-mir-1247 (structured_RNA)
# RNA: GGGAAAGACUCCCCAGUGAGGCUCUCAGGGUGUACGAAGUUUCAGCCGGACGUUGCUCUCUACCCCGGCUGAAGCUUCGUGCAC
# B6: hsa-mir-4665 (structured_RNA)
# RNA: GGGAACGUGGUAAGUCUGGAUCGAAACCGGUGUACGAAGUUUCAGCCGAGCCGCUUCCUCACGGCUCGGCUGAAGCUUCGUGCAC
# B7: hsa-mir-548x (structured_RNA)
# RNA: GGGAAUGACGCCUGGGGAUUGAUCACUUGGUGUACGAAGUUUCAGCUUUGCGUUACUUUCAAUCGUAAAGCUGAAGCUUCGUGCAC
# B8: hsa-mir-5590 (structured_RNA)
# RNA: GGGAAUCCGGCCCAAGAUCAUUUCGCUAGGUGUACGAAGUUUCAGCUAUUGUGUUGAUCAACAAUAGCUGAAGCUUCGUGCAC
# B9: hsa-mir-515-1_515-2 (structured_RNA)
# RNA: GGGACAAUGGGUGUCCGAGGCUAUAAUCGGUGUACGAAGUUUCAGCUUUCUGUUGUCUGAAAGCAGAGCUGAAGCUUCGUGCAC
# B10: hsa-mir-6781 (structured_RNA)
# RNA: GGGAGCUGAUAGCCCUGGUUUCAUAAAGGGUGUACGAAGUUUCAGCGCGUCGCUUCUCCCUAAUGUUGCCGCUGAAGCUUCGUGCAC
# B11: PARIS_ID46 (structured_RNA)
# RNA: GGGAAGGCAAAUCUCUGAUUCGUCCUGCGGUGUACGAAGUUUCAGCGUAGGUGUCUUCACCUGCGCUGAAGCUUCGUGCAC
# B12: hsa-mir-7705 (structured_RNA)
# RNA: GGGAACGAGCGUCACAUCGUAAUCGAUUGGUGUACGAAGUUUCAGCUCUGUUUUAAGUAACAGAGCUGAAGCUUCGUGCAC
# B13: hsa-mir-605 (structured_RNA)
# RNA: GGGAACCAACUGGAAAUCUCUGCCUAAUGGUGUACGAAGUUUCAGCUUCUCCUUGGGAAAAACAGAGAAGCUGAAGCUUCGUGCAC
# B14: hsa-mir-620 (structured_RNA)
# RNA: GGGAACCAUGACGGUCGCGGGUUUUAUGGGUGUACGAAGUUUCAGCCCGUAUAUAUAUAUAUAUAUAUAUAGAUAUCUCCAUAUAUAUGGGCUGAAGCUUCGUGCAC
# B15: hsa-mir-3529 (structured_RNA)
# RNA: GGGACCAAUAGGCCAGACGUUCGCAAUUGGUGUACGAAGUUUCAGCUGUUGAGCGCAGUAAGACAACAGCUGAAGCUUCGUGCAC
# B16: hsa-mir-92a-2 (structured_RNA)
# RNA: GGGAAUCGAGGUAGUUACGACUCGCCUUGGUGUACGAAGUUUCAGCAUUACUUGUGUUCUAUAUAAAGUAUUGCUGAAGCUUCGUGCAC
# B17: hsa-mir-3908 (structured_RNA)
# RNA: GGGAAAGUAGCAAAGCCGCUGUCAAGCGGGUGUACGAAGUUUCAGCGUUUCUAAAAAAAUAAAAAGUUAAAAAAAUUUAUGUUAACGUGUAAUGUGUUUACUAAUUUUUUUUUUUUUUUUUGGAGACGCUGAAGCUUCGUGCAC
# B18: hsa-mir-339 (structured_RNA)
# RNA: GGGAAAGCGAGCCAUCGACGUUAUAACCGGUGUACGAAGUUUCAGCCUCACGUGUGCCUGCCUGUGAGGCUGAAGCUUCGUGCAC
# B19: hsa-mir-659 (structured_RNA)
# RNA: GGGAAGGAUACUUGGGCAGUGAUCUAUAGGUGUACGAAGUUUCAGCCAAGGAAGAGUCACAGUCUCUUCCUUGGCUGAAGCUUCGUGCAC
# B20: hsa-mir-892b (structured_RNA)
# RNA: GGGAAGGGUCGAACUAGUUUCAUCAAACGGUGUACGAAGUUUCAGCGUAGAUUUUAUGUCACGCUGAAGCUUCGUGCAC
# B21: hsa-mir-520a (structured_RNA)
# RNA: GGGAAACCUGGUCACGGCUGCCGAAUUAGGUGUACGAAGUUUCAGCCUUUCUGUUGUCUGAGAGAAAAGAAAGGCUGAAGCUUCGUGCAC
# B22: hsa-mir-3177 (structured_RNA)
# RNA: GGGAAACUCAAUAUCAACGGCCGGUCCGGGUGUACGAAGUUUCAGCGGCGCUGUCUUGAGACAUUCGCGCAGUGCAGCUGAAGCUUCGUGCAC
# B23: PARIS_ID29 (structured_RNA)
# RNA: GGGAAAGCUGUUGCACUAGACAGUCCUCGGUGUACGAAGUUUCAGCGCCAAAAUAGAAUAAUGUUGGUGCUGAAGCUUCGUGCAC
# B24: hsa-mir-3196 (structured_RNA)
# RNA: GGGAGACAGGUGUCUUAAGGACUAGGUGGGUGUACGAAGUUUCAGCCCUCCCCCAGUGCCAGGGCUGAAGCUUCGUGCAC
# B25: hsa-mir-1273e (structured_RNA)
# RNA: GGGAAAGACGACGCUGGUUGUGACCUUCGGUGUACGAAGUUUCAGCUGGAGGCUGCAGUGAGCCGAGAUCGAGCCACUGUACUCCAGCUGAAGCUUCGUGCAC
# Key:
# Experiment in all cases: FOREST: bead pull-down of RNA structure library v1, barcode microarray; U1A/LIN28A: 20 mM HEPES pH 7.5, 80 mM KCl, 20 mM NaCl, 10% glycerol, 2 mM DTT, 0.1 ug/uL BSA, 4 C; BG4/CIRBP/DHX36: 10 mM Tris-HCl pH 7.5, 100 mM KCl (or LiCl),; high values mean tight binding
# [1] = biological target: T1, LIN28A (human?, UniProt Q9H9Z2 1-209)
# T1 sequence: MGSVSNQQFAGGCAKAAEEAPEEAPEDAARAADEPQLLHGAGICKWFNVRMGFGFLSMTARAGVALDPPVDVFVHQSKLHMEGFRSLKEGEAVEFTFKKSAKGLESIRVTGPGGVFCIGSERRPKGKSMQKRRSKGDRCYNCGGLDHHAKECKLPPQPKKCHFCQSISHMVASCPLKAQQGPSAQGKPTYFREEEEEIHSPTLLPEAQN
# [2] = biological target: T2, CIRBP (Homo sapiens, UniProt Q14011 1-172)
# T2 sequence: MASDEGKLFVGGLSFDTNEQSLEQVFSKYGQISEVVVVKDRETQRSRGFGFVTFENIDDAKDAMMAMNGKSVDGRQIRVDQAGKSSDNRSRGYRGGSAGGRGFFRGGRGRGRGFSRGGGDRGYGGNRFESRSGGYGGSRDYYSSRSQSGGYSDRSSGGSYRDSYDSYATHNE
# [3] = biological target: T3, DHX36 (Homo sapiens, UniProt Q9H2U1 1-1008)
# T3 sequence: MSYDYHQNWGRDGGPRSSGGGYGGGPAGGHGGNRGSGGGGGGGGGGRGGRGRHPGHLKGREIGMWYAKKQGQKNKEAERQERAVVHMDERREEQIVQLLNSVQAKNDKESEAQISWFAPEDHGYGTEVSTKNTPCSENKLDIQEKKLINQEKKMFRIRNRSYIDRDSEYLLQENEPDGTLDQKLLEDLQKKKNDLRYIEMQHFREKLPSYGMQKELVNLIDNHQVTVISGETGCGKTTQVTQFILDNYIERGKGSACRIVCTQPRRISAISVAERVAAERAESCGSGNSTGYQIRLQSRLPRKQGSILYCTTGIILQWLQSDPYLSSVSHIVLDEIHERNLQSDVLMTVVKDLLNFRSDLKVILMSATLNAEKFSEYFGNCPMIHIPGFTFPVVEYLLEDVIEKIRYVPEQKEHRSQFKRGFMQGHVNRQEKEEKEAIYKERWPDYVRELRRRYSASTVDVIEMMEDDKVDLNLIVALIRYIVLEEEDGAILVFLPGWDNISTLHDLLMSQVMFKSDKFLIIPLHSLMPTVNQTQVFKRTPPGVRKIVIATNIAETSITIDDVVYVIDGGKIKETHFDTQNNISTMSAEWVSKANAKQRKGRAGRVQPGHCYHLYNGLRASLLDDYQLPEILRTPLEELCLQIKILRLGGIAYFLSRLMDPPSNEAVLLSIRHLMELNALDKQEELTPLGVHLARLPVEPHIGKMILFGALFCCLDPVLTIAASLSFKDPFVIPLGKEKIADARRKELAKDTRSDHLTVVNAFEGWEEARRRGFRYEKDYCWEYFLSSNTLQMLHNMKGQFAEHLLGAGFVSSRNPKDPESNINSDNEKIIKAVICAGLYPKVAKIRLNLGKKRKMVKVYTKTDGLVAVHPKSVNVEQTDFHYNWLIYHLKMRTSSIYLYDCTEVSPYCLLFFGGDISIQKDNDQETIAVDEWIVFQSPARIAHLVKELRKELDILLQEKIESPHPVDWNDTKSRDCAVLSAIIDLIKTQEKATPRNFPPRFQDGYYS
Binder,binding signal [1] [z-score],binding signal [2] [z-score],binding signal [3] [z-score]
B1,-0.276,0.823,-0.16
B2,-0.277,0.447,0.588
B3,-0.278,-0.941,0.0953
B4,-0.279,0.18,0.798
B5,-0.28,0.398,-0.404
B6,-0.285,0.934,0.206
B7,-0.286,0.0938,-0.52
B8,-0.289,-0.357,-1.2
B9,-0.289,0.595,0.0127
B10,-0.292,-0.0946,-0.0935
B11,-0.665 ± 0.523,0.11 ± 0.948,-0.242 ± 0.367
B12,-0.297,0.759,0.444
B13,-0.299,0.707,0.544
B14,-0.299,-0.861,0.541
B15,-0.307,0.357,-0.323
B16,-0.308,-1.27,-0.942
B17,-0.31,0.66,-0.135
B18,-0.312,-0.395,-0.719
B19,-0.312,0.374,-0.344
B20,-0.313,0.0261,-0.0424
B21,-0.32,0.00617,-0.572
B22,-0.32,-0.595,-1.44
B23,-0.323,0.00506,-0.0337
B24,-0.325,0.515,0.314
B25,-0.326,0.471,0.0165
